This is a selection; strong and weak results do not stand in their true shares. Results filed as inconclusive are left out. The source made the active and inactive calls. Calls come from the whole dose curve; as a rule, active = well fitted inhibition curve with a large enough effect; inconclusive = small, poorly fitted or top-dose-only effect, or effect the other way, or another doubt; inactive = no such curve, though single readings can be large or run the other way.
experiment: Nrf2 qHTS screen for inhibitors: counterscreen for cytotoxicity; conditions: A549 ARE-Fluc cells, CellTiter-Fluor viability, 18-24 h; series mostly up to 46 µM; activity change, negative = cytotoxicity: at the top concentration
From the text: NIH Molecular Libraries Probe Production Network [MLPCN]
NIH Chemical Genomics Center [NCGC]
Assay Provider: Shyam Biswal, Johns Hopkins University
Nrf2 is a transcription factor that maintains cellular redox homoestasis and protects cells from xenobiotics. Nrf2 binds to the antioxidant response element (ARE) to induce gene expression of a broad spectrum of genes that encode for antioxidants. […] Finding a small molecule that act as an inhibitor of Nrf2 function would represent a novel therapeutic target that could lead to improvement in survival of patients undergoing chemo- and/or radio- therapy.
So here we implemented a counterscreen to weed out the cytotoxic compounds.
1. Shibata, T., et al., Genetic Alteration of Keap1 Confers Constitutive Nrf2 Activation and Resistance to Chemotherapy in Gallbladder Cancer. Gastroenterology, 2008.
2. Sjoblom, T., et al., The consensus coding sequences of human breast and colorectal cancers. Science, 2006. 314(5797): p. 268-74.
NCGC Assay Protocol Summary:
A concentration-response assay was performed with A549 ARE_Fluc cells which are suspended in 5% FBS OPTI-MEM. Five uL were dispensed into 1536-well white TC-treated plate using the Kalypsys dispenser to achieve a density of 5000 cells/well in all columns except column 1. The plate is incubated at 37deg C at 5% CO2 for 2 hours before 23 nL of compounds are added with the Kalypsys pin tool equipped with a 1,536-pin array containing 10-nL slotted pins (FP1S10, 0.457-mm diameter, 50.8 mm long; V&P Scientific). The control compounds Budesonide and Staurosporine are both added at a concentration of 2mM and Budesonide is also added as a 1:10 titration, starting at 200uM, to achieve dose-response. After an 18-24 hour incubation at 37deg C at 5% CO2, 5ul of medium is added to column 1. Afterwards 1ul of 5x of CellTiter-Fluor (Promega) is added to every well. The plate is then incubated at 37deg C at 5% CO2 for 30 minutes before they are read on the ViewLux (Perkin Elmer) for a fluorescent read Ex=405(10)/Em=525(10) for a 3 second exposure, 2x binning, and high gain. Then 3 uL of 3x BugLite is dispensed into all wells and the plate is incubated at ambient room temperature for 15 minutes. Afterwards another ViewLux read is performed using the clear filter to get a luminescent read with the settings of 40 second exposure, 2x binning, and high gain. Cytotoxicity is assessed through the first fluorescent read and then biochemical activity against Nrf2 is measured in the luminescent read.
% is set by controls: 0 for no effect and ±100 for the full control effect.

| Structure (SMILES) | activity change, negative = cytotoxicity |
| --- | --- |
| O=[N+]([O-])c1ccc2c(c1)nnn2O | inactive: -0.803% |
| CN(C)C(=O)c1cc([N+](=O)[O-])cc2c1-c1c(cc([N+](=O)[O-])cc1[N+](=O)[O-])C2=O | inactive: -29.9% |
| CN(C(=O)Cc1ccc(Cl)c(Cl)c1)[C@H]1CC[C@@]2(CCCO2)C[C@@H]1N1CCCC1 | inactive: -4.63% |
| N#CCCN(C(=O)COC(=O)C(O)(c1ccccc1)c1ccccc1)c1ccc(F)cc1 | inactive: 10.6% |
| CN(C(=O)Cc1ccccc1)[C@@H]1CC[C@]2(CCCO2)C[C@H]1N1CCCC1 | inactive: -6.26% |
| CCOP1(=S)c2c(C)nn(CCC#N)c2N=C(c2ccc(F)cc2)N1C (centres undefined) | inactive: 2.74% |
| NC(=O)Nc1ccc([As](=O)(O)O)cc1 | inactive: -1.08% |
| Nc1ccccc1[As](=O)(O)c1ccccc1 | inactive: -0.624% |
| O=C(O)COc1ccc([As](=O)(O)O)cc1[N+](=O)[O-] | inactive: 5.55% |
| CS(=O)(=O)c1cc([N+](=O)[O-])c2no[n+]([O-])c2c1 | inactive: -11% |
| CCOP1(=S)c2c(C)nn(CCC#N)c2N=C(c2ccccc2F)N1C (centres undefined) | inactive: 6.5% |
| O=P(Nc1nccs1)(Oc1ccccc1)Oc1ccccc1 | inactive: 11% |
| O=P(Nc1nccs1)(c1ccccc1)c1nc2ccccc2s1 (centres undefined) | inactive: -9.15% |
| COc1cc(C2NCCC3(OCCO3)C2(C)C)cc(OC)c1OC (centres undefined) | inactive: 2.61% |
| CCOP(=O)(Nc1cccc2ccccc12)OCC | inactive: -6.78% |
| CCCOP(=S)(Nc1nc(N)cc(=O)[nH]1)OCCC | inactive: 5.43% |
| Cc1ccc(NCCc2c([N+](=O)[O-])cc([N+](=O)[O-])cc2[N+](=O)[O-])cc1 | inactive: -16.3% |
| Nc1cccc2c([As](=O)(O)O)cccc12 | inactive: -2.61% |
| Cc1cccc(OCC(=O)OC2CN3CCC2CC3)c1 (centres undefined) | inactive: 6.56% |
| O=[As](O)(c1cccc(O)c1)c1cccc(O)c1 | inactive: -4% |

| Structure (SMILES) | activity change, negative = cytotoxicity |
| --- | --- |
| O=[As](O)(O)c1cccnc1 | inactive: 0.607% |
| COc1cc(C(=O)NCC2(N3CCOCC3)CCCCC2)cc(Cl)c1OC(C)C | inactive: -4% |
| CS(=O)(=O)c1ccc(Cl)c(NC(=O)COC(=O)C(O)(c2ccccc2)c2ccccc2)c1 | inactive: -6.5% |
| O=C(OC1CN2CCC1CC2)c1ccc(Cl)cc1 (centres undefined) | inactive: 1.59% |
| CC1(CBr)Cn2c(nc3ccccc3c2=O)S1 (centres undefined) | inactive: -6.17% |
| CN(C(=O)Cc1ccc(Cl)c(Cl)c1)[C@@H]1CCCC[C@H]1N1CCCC1 | inactive: 6.9% |
| COc1ccccc1CNC(=O)COC(=O)C(O)(c1ccccc1)c1ccccc1 | inactive: 1.25% |
| Clc1n[nH]nc1-c1nn[nH][15n]1 | inactive: 1.61% |
| CC(C)(C)C(=O)NC(Sc1ncccn1)C(Cl)(Cl)Cl (centres undefined) | inactive: 4.58% |
| CCOP(=O)(Nc1ccc(C)cn1)OCC | inactive: 0.325% |
| O=P1(Nc2ccccn2)COc2ccccc2OC1 | inactive: 11.2% |
| CCOP(=O)(NC(=NC(C)c1ccccc1)NC(C)c1ccccc1)OCC (centres undefined) | inactive: -3.63% |
| Cc1ccc(OCC(=O)OC2CN3CCC2CC3)cc1 (centres undefined) | inactive: 19% |
| O=[As](O)(c1cccs1)c1cccs1 | inactive: 2.05% |
| O=P1(Nc2ccc(Br)cn2)COc2ccccc2OC1 | inactive: 0.522% |
| NS(=O)(=O)c1cccc(NC(=O)COC(=O)C(O)(c2ccccc2)c2ccccc2)c1 | inactive: 2.71% |
| Nc1cccc([As](=O)(O)c2ccccc2)c1 | inactive: -0.781% |
| O=P1(Nc2ncccn2)COc2ccccc2OC1 | inactive: -8% |
| O=C(/C=C/c1ccccc1)OC1CN2CCC1CC2 (centres undefined) | inactive: 0.0477% |
| CCCC1OP(=O)(Nc2ccccc2)OCC1CC (centres undefined) | inactive: -4.16% |

| Structure (SMILES) | activity change, negative = cytotoxicity |
| --- | --- |
| CN(C)C1(CNC(=O)c2ccc(S(C)(=O)=O)cc2)CCCCC1 | inactive: -0.76% |
| Cc1nn(-c2ccccc2)c2c1P(=O)(N1CCOCC1)N(C)C(c1ccccc1)=N2 (centres undefined) | inactive: 2.34% |
| Cc1ccc(C(=O)OC2CN3CCC2CC3)cc1 (centres undefined) | inactive: 0.26% |
| O=[N+]([O-])c1ccc(Nc2ccc(Oc3ccc([N+](=O)[O-])cc3[N+](=O)[O-])cc2)c([N+](=O)[O-])c1 | inactive: -5.23% |
| O=P(Nc1ccccn1)(c1cccc2ccccc12)c1cccc2ccccc12 | inactive: -6.01% |
| Cc1cc(SC(NC=O)C(Cl)(Cl)Cl)ncn1 (centres undefined) | inactive: 1.49% |
| CCOC(=O)Nc1cccc([As](=O)(O)O)c1 | inactive: 12.8% |
| CCCCOc1ccc(C(=O)NCC2(N3CCCCC3)CCCCC2)cc1OC | inactive: -9.62% |
| Cc1cc(SC(NC(=O)c2ccccc2)C(Cl)(Cl)Cl)nc(C(C)C)n1 (centres undefined) | inactive: 0.575% |
| CC1CCNP(=O)(N(CCCl)CCCl)O1 (centres undefined) | inactive: -0.021% |
| CCOC(=O)Nc1ccc([As](=O)(O)O)c(O)c1 | inactive: 0.166% |
| CCOP(=O)(Nc1cccc2cccnc12)OCC | inactive: -5.31% |
| CCC(C)N(CC(C)C)C(=S)SC(NC(C)=O)C(Cl)(Cl)Cl (centres undefined) | inactive: -19.7% |
| CCOC(=O)c1ccc(NC(=O)C(C)(CCl)SC)cc1 (centres undefined) | inactive: 0.702% |
| O=C(OC1CN2CCC1CC2)c1cccc([N+](=O)[O-])c1 (centres undefined) | inactive: -5.37% |
| O=C(COc1ccccc1)OC1CN2CCC1CC2 (centres undefined) | inactive: 0.17% |
| O=C(Nc1ccncc1[N+](=O)[O-])c1ccc([N+](=O)[O-])cc1[N+](=O)[O-] | inactive: -19.3% |
| COP1(=S)c2c(C)nn(CCC#N)c2N=C(c2ccc(F)cc2)N1C (centres undefined) | inactive: 14.7% |
| COc1ccc(N/C(=N/P(=O)(N2CCOCC2)N2CCOCC2)N2CCOCC2)cc1 | inactive: 6.3% |

Reference: PubChem BioAssay AID504648 (National Center for Advancing Translational Sciences (NCATS), 2011)
